Results published in PubChem BioAssay (NCI).
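Protocol summary: plate cells (96-well), add compound at 5 concentrations, incubate 48 h, interpolate endpoints linearly. The concentration for 50% growth inhibition is given as GI50. TGI: total growth inhibition.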

What was measured:
Assay in all cases: growth of human tumour cells (NCI), 48 h
[1] = system: PC-3 prostate
[2] = system: SN12C renal
[3] = system: TK-10 renal
[4] = system: HCT-15 colon
[5] = system: SK-OV-3 ovarian
[6] = system: SF-295 CNS
[7] = system: EKVX NSCLC
[8] = system: MDA-MB-435
[9] = system: HOP-92 NSCLC
[10] = system: IGROV1 ovarian
[11] = system: UO-31 renal
[12] = system: HOP-62 NSCLC
[13] = system: RXF 393 renal
[14] = system: M14 melanoma
[15] = system: A498 renal
[16] = system: NCI-H460 lung
[17] = system: K-562 leukemia
[18] = system: NCI/ADR-RES ovarian
[19] = system: LOX IMVI melanoma
[20] = system: MOLT-4 leukemia
[21] = system: SK-MEL-2 melanoma
[22] = system: SF-539 CNS
[23] = system: 786-0 renal
[24] = system: OVCAR-3 ovarian
[25] = system: DU-145 prostate
[26] = system: ACHN renal
[27] = system: SK-MEL-28 melanoma
[28] = system: MDA-MB-231 breast
[29] = system: MDA-N
[30] = system: SR leukemia
[31] = system: SNB-19 CNS
[32] = system: HCT-116 colon
[33] = system: T-47D breast
[34] = system: CAKI-1 renal
[35] = system: MALME-3M melanoma
[36] = system: SW-620 colon
[37] = system: HCC-2998 colon
[38] = system: NCI-H226 lung
[39] = system: U251 CNS
[40] = system: A549 NSCLC
[41] = system: UACC-62 melanoma
[42] = system: OVCAR-5 ovarian
[43] = system: SK-MEL-5 melanoma
[44] = system: HL-60(TB) leukemia
[45] = system: KM12 colon
[46] = system: RPMI-8226 leukemia
[47] = system: OVCAR-4 ovarian
[48] = system: CCRF-CEM leukemia
[49] = system: HS 578T breast
[50] = system: MCF7 breast
[51] = system: BT-549 breast
[52] = system: COLO 205 colon
[53] = system: SNB-75 CNS
[54] = system: HT29 colon
[55] = system: UACC-257 melanoma
[56] = system: NCI-H23 lung
[57] = system: NCI-H522 lung
[58] = system: SF-268 CNS
[59] = system: NCI-H322M lung
[60] = system: OVCAR-8 ovarian

What does the source list for `CCCCCCCCCCCCCCCC[C@@H]1C[N+](C)(C)CCO[P@](C)(=O)O1`?
GI50 [1]: 4.55 µM; TGI [1]: 16.1 µM; GI50 [2]: 18.2 µM; TGI [2]: 35.1 µM; GI50 [3]: 11.5 µM; TGI [3]: 23.9 µM; GI50 [4]: 10 µM; TGI [4]: 22.6 µM; GI50 [5]: 13.9 µM; TGI [5]: 26.8 µM; GI50 [6]: 14.3 µM; TGI [6]: 30.7 µM; GI50 [7]: 14.2 µM; TGI [7]: 28.4 µM; GI50 [8]: 14.3 µM; TGI [8]: 27.8 µM; GI50 [9]: 6.86 µM; TGI [9]: 27 µM; GI50 [10]: 3.79 µM; TGI [10]: 15.8 µM; GI50 [11]: 14.3 µM; TGI [11]: 27.5 µM; GI50 [12]: 15.7 µM; TGI [12]: 30 µM; GI50 [13]: 10.9 µM; TGI [13]: 24.5 µM; GI50 [14]: 7.34 µM; TGI [14]: 20.5 µM; GI50 [15]: 12 µM; TGI [15]: 24.7 µM; GI50 [16]: 15 µM; TGI [16]: 35.3 µM; GI50 [17]: 6.37 µM; TGI [17]: 24 µM; GI50 [18]: 14 µM; TGI [18]: 33.1 µM; GI50 [19]: 6.19 µM; TGI [19]: 19.4 µM; GI50 [20]: 3.81 µM; TGI [20]: 14.9 µM; GI50 [21]: 15.3 µM; TGI [21]: 29.4 µM; GI50 [22]: 11.8 µM; TGI [22]: 24.4 µM; GI50 [23]: 13.1 µM; TGI [23]: 25.8 µM; GI50 [24]: 10.7 µM; TGI [24]: 22.6 µM; GI50 [25]: 11.2 µM; TGI [25]: 23.4 µM; GI50 [26]: 11.8 µM; TGI [26]: 24.1 µM; GI50 [27]: 14.1 µM; TGI [27]: 27.1 µM; GI50 [28]: 15.2 µM; TGI [28]: 30 µM; GI50 [29]: 13 µM; TGI [29]: 26.3 µM; GI50 [30]: 4.43 µM; TGI [30]: 19.4 µM; GI50 [31]: 14.5 µM; TGI [31]: 28.2 µM; GI50 [32]: 5 µM; TGI [32]: 21.2 µM; GI50 [33]: 2.91 µM; TGI [33]: 16 µM; GI50 [34]: 11.4 µM; TGI [34]: 23.9 µM; GI50 [35]: 13.1 µM; TGI [35]: 26 µM; GI50 [36]: 19.1 µM; TGI [36]: 47.1 µM; GI50 [37]: 4.88 µM; TGI [37]: 18.1 µM; GI50 [38]: 15 µM; TGI [38]: 33.8 µM; GI50 [39]: 14.6 µM; TGI [39]: 28.5 µM; GI50 [40]: 12.4 µM; TGI [40]: 27.5 µM; GI50 [41]: 11 µM; TGI [41]: 30 µM; GI50 [42]: 11.8 µM; TGI [42]: 24.2 µM; GI50 [43]: 9.21 µM; TGI [43]: 21.4 µM; GI50 [44]: 1.54 µM; TGI [44]: 3.56 µM; GI50 [45]: 10.7 µM; TGI [45]: 22.8 µM; GI50 [46]: 2.89 µM; TGI [46]: 12.8 µM; GI50 [47]: 5.78 µM; TGI [47]: 18.5 µM; GI50 [48]: 5.5 µM; TGI [48]: 19.6 µM; GI50 [49]: 4.35 µM; TGI [49]: 35.2 µM; GI50 [50]: 10.7 µM; TGI [50]: 23.9 µM; GI50 [51]: 14.5 µM; TGI [51]: 29.5 µM; GI50 [52]: 9.55 µM; TGI [52]: 21.7 µM; GI50 [53]: 11.8 µM; TGI [53]: 24.4 µM; GI50 [54]: 4.7 µM; TGI [54]: 16.6 µM; GI50 [55]: 10.8 µM; TGI [55]: 23.8 µM; GI50 [56]: 13.3 µM; TGI [56]: 26.5 µM; GI50 [57]: 3.69 µM; TGI [57]: 17.1 µM; GI50 [58]: 12.3 µM; TGI [58]: 25.8 µM; GI50 [59]: 15 µM; TGI [59]: 28.6 µM; GI50 [60]: 12.2 µM; TGI [60]: 27.5 µM
